Assay results as given in BindingDB's records for doi:10.1021/jm00029a008 (Dupont Pharmaceuticals, 1994).
Where a name gives a salt, the structure may show the parent alone.

Experiment: Binding affinity for sigma receptor of guinea pig whole brain using [3H]-[…] radioligand

| Structure (SMILES) | Ki [µM] |
| --- | --- |
| CN1CCC2(CCc3ccccc3C2=O)CC1 [1'-methylspiro[1,2,3,4-tetrahydronaphthalene-2,4'-(hexahydropyridine)]-1-one; hydrochloride] | 1.04 |
| O=C1c2c(F)cc(F)cc2CCC12CCN(CCc1ccccc1)CC2 [6,8-difluoro-1'-phenethylspiro[1,2,3,4-tetrahydronaphthalene-2,4'-(hexahydropyridine)]-1-one; fumarate] | 0.002 |
